Experiment [1] deals with E. faecium. Description: Relative quantitation of mRNA of folate-binding proteins (qPCR). The format is cell-based, Enterococcus faecium. Particulars: 2 μM, single values. On the technique in general: Quantitative PCR measures a nucleic acid by following its amplification.
Experiment [2] relates to E. faecium. The experiment can be described thus: Bacterial viability assay (Microbial Viability Assay Kit-WST, OD450). The class given is cell-based, Enterococcus faecium. Particulars: single values.
In another experiment the test system is Caski cells. Description: Cell cytotoxicity assay (Cell Counting Kit-8, 5 days). The class given is cell-based, human. As to conditions: with each cell line (Caski, Hep-2 and Calu-3). In general terms: Tetrazolium assays rely on reduction of a dye to a coloured formazan, in cell work by metabolically active cells.
In a further experiment the test system is efmSHMT. The format is binding, Enterococcus faecium. As to conditions: DSF; final drug concentration 50 μM.
The subject of experiment [3] is E. faecium. The experiment can be described thus: Antibacterial assay with an excess concentration of biomolecules (Ser, Gly, inosine, dT, FA). Particulars: E. faecium JCM5804.

Several values for one entry are separate records, joined by “and”; a condition that tells them apart may be missing. Equal entries are not always repeated.

For the compound `Cc1n[nH]c2c1[C@](c1cc(CO)cc(-c3ccccc3)c1)(C(C)C)C(C#N)=C(N)O2` [(+)-SHIN-1], the “Relative mRNA level of Fhs with and without (+)-SHIN-1” value in the experiment with E. faecium [1] (4 hours) is 0.5212 and 0.5176 and 0.4263 and 0.712. In addition, the “Relative mRNA level of GcvH with and without (+)-SHIN-1” value is 1.266 and 1.079 and 1.072 and 1.248 in the experiment with E. faecium [1] (4 hours); 2.479 and 2.266 and 1.866 and 1.905 with E. faecium [1] (10 hours). The “Relative mRNA level of MetE with and without (+)-SHIN-1” value in the experiment on E. faecium [1] (4 hours) is 0.7022 and 0.5471 and 0.5 and 0.8011; in the experiment on E. faecium [1] (10 hours), 3.706 and 2.621 and 1.959 and 1.866. In addition, the “Relative mRNA level of SHMT with and without (+)-SHIN-1” value with E. faecium [1] (4 hours) is 1.434 and 1.214 and 1.395 and 0.9931 and 0.9526 and 1.682. In addition, in the experiment on E. faecium [1] (10 hours), the “Relative mRNA level of FolD with and without (+)-SHIN-1” value was 1.79 and 2.056 and 1.338 and 1.879. In addition, the Relative bacterial viability in the experiment with E. faecium [2] (0.002 nM, 0 hours) is 0.02429 and 0.01932 and 0.02699; in the experiment with E. faecium [2] (0.002 nM, 2 hours), 0.03004 and 0.03309 and 0.03812; in the experiment with E. faecium [2] (0.002 nM, 6 hours), 0.5169 and 0.6074 and 0.5088; in the experiment with E. faecium [2] (0.002 nM, 8 hours) it was 0.7263 and 0.5166 and 0.6744; in the experiment on E. faecium [2] (0.002 nM, 10 hours) it was 0.7297 and 0.6296 and 0.8675; in the experiment on E. faecium [2] (0.002 nM, 12 hours) it was 0.7481 and 0.8347 and 0.8542. Moreover, the Relative bacterial viability is 0.7092 and 0.7528 and 0.8693 with E. faecium [2] (0.002 nM, 14 hours); 0.02483 and 0.02435 and 0.02492 in the experiment with E. faecium [2] (0.02 nM, 0 hours); 0.03006 and 0.03128 and 0.03314 with E. faecium [2] (0.02 nM, 2 hours); 0.4513 and 0.5391 and 0.5152 with E. faecium [2] (0.02 nM, 6 hours); 0.5639 and 0.6166 and 0.6675 in the experiment with E. faecium [2] (0.02 nM, 8 hours); 0.6198 and 0.6896 and 0.6835 in the experiment with E. faecium [2] (0.02 nM, 10 hours). The Relative bacterial viability in the experiment with E. faecium [2] (0.02 nM, 12 hours) is 0.6343 and 0.6046 and 0.7527; in the experiment with E. faecium [2] (0.02 nM, 14 hours), 0.5602 and 0.701 and 0.662; in the experiment with E. faecium [2] (0.2 nM, 0 hours), 0.0233 and 0.02329 and 0.02623; in the experiment on E. faecium [2] (0.2 nM, 2 hours), 0.02436 and 0.03032 and 0.03225; in the experiment with E. faecium [2] (0.2 nM, 4 hours), 0.08823 and 0.1393 and 0.1446; with E. faecium [2] (0.2 nM, 6 hours), 0.301 and 0.4695 and 0.3439. Moreover, the Relative bacterial viability with E. faecium [2] (0.2 nM, 8 hours) is 0.3818 and 0.4551 and 0.5048; with E. faecium [2] (0.2 nM, 10 hours), 0.4983 and 0.4878 and 0.5532; in the experiment on E. faecium [2] (0.2 nM, 12 hours) it was 0.469 and 0.5601 and 0.3666; in the experiment with E. faecium [2] (0.2 nM, 14 hours), 0.4443 and 0.5334 and 0.5469; in the experiment on E. faecium [2] (2 nM, 0 hours) it was 0.02007 and 0.02438 and 0.02356; in the experiment with E. faecium [2] (2 nM, 2 hours), 0.03292 and 0.02617 and 0.03084. Further, the Relative bacterial viability is 0.1475 and 0.08523 and 0.1641 with E. faecium [2] (2 nM, 4 hours); 0.2471 and 0.303 and 0.3379 in the experiment with E. faecium [2] (2 nM, 6 hours); 0.4104 and 0.4271 and 0.369 with E. faecium [2] (2 nM, 8 hours); 0.3801 and 0.4059 and 0.397 with E. faecium [2] (2 nM, 10 hours); 0.405 and 0.335 and 0.3218 in the experiment on E. faecium [2] (2 nM, 12 hours); 0.346 and 0.3933 and 0.3283 with E. faecium [2] (2 nM, 14 hours). The Relative bacterial viability with E. faecium [2] (20 nM, 0 hours) is 0.02589 and 0.02697 and 0.02933; in the experiment on E. faecium [2] (20 nM, 2 hours) it was 0.02853 and 0.02842 and 0.03437; with E. faecium [2] (20 nM, 4 hours), 0.0851 and 0.1525 and 0.1401; in the experiment with E. faecium [2] (20 nM, 6 hours) it was 0.2225 and 0.2825 and 0.2517; in the experiment on E. faecium [2] (20 nM, 8 hours) it was 0.3287 and 0.2343 and 0.2795; in the experiment on E. faecium [2] (20 nM, 10 hours), 0.2735 and 0.311 and 0.2601. In addition, the Relative bacterial viability with E. faecium [2] (20 nM, 12 hours) is 0.285 and 0.2913 and 0.2651; in the experiment on E. faecium [2] (20 nM, 14 hours), 0.2651 and 0.258 and 0.2518. In addition, the “selectivity index (S.I.): CC50 against each cell line / EC50 against E. faecium” value in the experiment on Caski cells is given as “exceeded 45,000”.
For `CN[C@H]1CC[C@@H](c2ccc(Cl)c(Cl)c2)c2ccccc21` [SER, sertraline], the Relative bacterial viability with E. faecium [2] (4 μM, 0 hours) is 0.01643 and 0.01709 and 0.02505 and 0.02136 and 0.02139 and 0.01651 and 0.02544 and 0.02186; in the experiment on E. faecium [2] (4 μM, 2 hours) it was 0.03008 and 0.03236 and 0.03793 and 0.03714 and 0.02993 and 0.02838 and 0.0317 and 0.03137; in the experiment with E. faecium [2] (4 μM, 6 hours) it was 0.7408 and 0.8154 and 0.8695 and 0.8307 and 0.4983 and 0.4746 and 0.4926 and 0.517; with E. faecium [2] (4 μM, 8 hours) it was 0.7398 and 0.6817 and 0.6102 and 0.6308 and 0.6696 and 0.7376 and 0.6939 and 0.6024; in the experiment on E. faecium [2] (4 μM, 10 hours) it was 0.7553 and 0.6503 and 0.6659 and 0.7068; in the experiment on E. faecium [2] (4 μM, 12 hours) it was 0.9534 and 0.9538 and 0.9571 and 0.87 and 0.8973 and 0.9262 and 0.9135 and 0.935. Further, the Relative bacterial viability in the experiment with E. faecium [2] (4 μM, 14 hours) is 0.9939 and 0.9995 and 0.9938 and 0.9905 and 0.9695 and 0.9711 and 0.9915 and 0.9919; in the experiment on E. faecium [2] (40 μM, 0 hours), 0.06773 and 0.07011 and 0.04926 and 0.05181 and 0.06275 and 0.056 and 0.05534 and 0.07801; with E. faecium [2] (40 μM, 2 hours), 0.08142 and 0.09734 and 0.07955 and 0.07164 and 0.07725 and 0.07311 and 0.06901 and 0.09679; in the experiment on E. faecium [2] (40 μM, 4 hours), 0.08959 and 0.09369 and 0.07599 and 0.08366 and 0.07938 and 0.08195 and 0.08682 and 0.1057; with E. faecium [2] (40 μM, 6 hours), 0.08914 and 0.1155 and 0.0796 and 0.08927 and 0.09836 and 0.09692 and 0.09332 and 0.1195; in the experiment with E. faecium [2] (40 μM, 8 hours), 0.08126 and 0.09978 and 0.08555 and 0.07545 and 0.0961 and 0.08176 and 0.08217 and 0.1035. For the same compound, the Relative bacterial viability is 0.09012 and 0.1052 and 0.08865 and 0.07965 and 0.09035 and 0.08629 and 0.09816 and 0.1031 in the experiment with E. faecium [2] (40 μM, 10 hours); 0.09668 and 0.09937 and 0.08521 and 0.08042 and 0.08964 and 0.08051 and 0.0853 and 0.1021 with E. faecium [2] (40 μM, 12 hours); 0.09884 and 0.08998 and 0.08117 and 0.08774 and 0.08986 and 0.0806 and 0.08989 and 0.09534 with E. faecium [2] (40 μM, 14 hours). Moreover, in the experiment with efmSHMT, the “ΔTm (thermal stability of efmSHMT)” value is listed as “did not stabilise efmSHMT significantly”.
For the compound `Cc1[nH]nc2c1C(c1cc(CO)cc(-c3ccccc3)c1)(C(C)C)C(C#N)=C(N)O2` (stereo not drawn) [SHIN-1], the “F.I. (fold increase: EC50 with supplement / EC50 without supplement)” value in the experiment on E. faecium [3] (1 mM Inosine) is on record as 10; in the experiment on E. faecium [3] (1 mM deoxythymidine), >3 × 10^3; with E. faecium [3] (10 mM Glycine) it was 2; in the experiment on E. faecium [3] (100 mM Serine) it was 5.

The record behind these values is article PMC9223267, “Serine hydroxymethyltransferase as a potential target of antibacterial agents acting synergistically with one-carbon metabolism-related inhibitors” (Communications Biology, 2022).
